Source: PMC6418135

Target: Recombinant mouse VDAC1 (voltage-dependent anion channel) (mouse) (UniProt Q60932)
Assay: single-channel current recording (planar lipid bilayer, nanopore blockage); VDAC single channel reconstituted in pure DOPE (PE) planar membrane; 10 nM α-syn in solution; 1 M KCl, 5 mM HEPES pH 7.4; -35 mV

fold difference of kon, PE membrane against PC membrane: 10 fold
Substance: α-synuclein (WT) (from UniProt P37840 1-140) (natural protein)
